Measurements from patent publication US9278960B2, “Quinoline carboxamide and quinoline carbonitrile derivatives as mGluR2-negative allosteric modulators, compositions, and their use” (Merck Sharp & Dohme Corp., priority 2011, dated 2016).
pIC50: −log10 of the molar value.

Chains of the proteins cited; added tags and fusions are not shown. Residues count along the entry.
UniProt Q14416, 19-872: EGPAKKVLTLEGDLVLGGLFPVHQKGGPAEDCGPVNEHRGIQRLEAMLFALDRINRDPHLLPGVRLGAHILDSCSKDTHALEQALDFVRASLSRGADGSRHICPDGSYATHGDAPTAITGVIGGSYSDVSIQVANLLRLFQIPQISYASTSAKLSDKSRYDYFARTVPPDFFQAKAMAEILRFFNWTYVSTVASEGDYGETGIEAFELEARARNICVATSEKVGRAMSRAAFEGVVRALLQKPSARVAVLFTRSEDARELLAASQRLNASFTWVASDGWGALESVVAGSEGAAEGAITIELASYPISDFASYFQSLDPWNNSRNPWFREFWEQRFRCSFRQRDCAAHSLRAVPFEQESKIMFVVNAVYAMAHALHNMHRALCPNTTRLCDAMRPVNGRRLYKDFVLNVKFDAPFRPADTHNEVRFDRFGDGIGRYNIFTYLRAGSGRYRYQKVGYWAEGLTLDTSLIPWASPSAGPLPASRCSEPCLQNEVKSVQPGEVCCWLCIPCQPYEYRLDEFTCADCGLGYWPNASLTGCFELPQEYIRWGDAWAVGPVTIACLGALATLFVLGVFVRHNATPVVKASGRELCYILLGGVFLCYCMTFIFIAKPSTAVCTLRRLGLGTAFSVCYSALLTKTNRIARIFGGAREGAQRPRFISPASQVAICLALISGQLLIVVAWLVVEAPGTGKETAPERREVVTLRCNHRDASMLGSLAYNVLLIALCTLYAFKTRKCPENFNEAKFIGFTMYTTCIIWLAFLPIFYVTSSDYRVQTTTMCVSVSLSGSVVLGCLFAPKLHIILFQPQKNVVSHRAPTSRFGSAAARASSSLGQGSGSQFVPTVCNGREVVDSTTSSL

target: human mGluR2 (Homo sapiens (Human), UniProt Q14416); experiment: FLIPR Ca2+ mobilization antagonist assay in CHO dhfr- cells expressing recombinant human mGluR2 and Gα16; assay type: cell-based; details: antagonist response after addition of 2,500 nM glutamate, Fluo-4 AM, FLIPR384

SMILES | pIC50
NC(=O)c1cc(-c2ccc(F)cc2)c2ccc(Cn3cc(C(=O)C4CC4)cn3)cc2n1 [Example 3-11, 7-{[4-(cyclopropylcarbonyl)-1H-pyrazol-1-yl]methyl}-4-(4-fluorophenyl)quinoline-2-carboxamide] | 7.51
CC[C@](O)(c1cn(Cc2ccc3c(-c4ccccc4C)cc(C(N)=O)nc3c2)nn1)C(F)(F)F [Example 3-15, 7-({4-[(1S)-1-hydroxy-1-(trifluoromethyl)propyl]-1H-1,2,3-triazol-1-yl}methyl)-4-(2-methylphenyl)quinoline-2-carboxamide] | 7.07
CC[C@@](O)(c1cn(Cc2ccc3c(-c4ccc(F)nc4)cc(C(N)=O)nc3c2)nn1)C(F)(F)F [Example 3-17, 4-(6-fluoropyridin-3-yl)-7-({4-[(1R)-1-hydroxy-1-(trifluoromethyl)propyl]-1H-1,2,3-triazol-1-yl}methyl)quinoline-2-carboxamide] | 7.13
CC[C@](O)(c1cn(Cc2ccc3c(-c4cccnc4F)cc(C(N)=O)nc3c2)nn1)C(F)(F)F [Example 3-19, 4-(2-fluoropyridin-3-yl)-7-({4-[(1S)-1-hydroxy-1-(trifluoromethyl)propyl]-1H-1,2,3-triazol-1-yl}methyl)quinoline-2-carboxamide] | 6.95
CCOC(=O)c1cnn(Cc2ccc3c(-c4ccc(F)cc4)cc(C(N)=O)nc3c2)c1 [Example 3-21, ethyl 1-{[2-carbamoyl-4-(4-fluorophenyl)quin-olin-7-yl]methyl}-1H-pyrazole-4-carboxylate] | 7.40
CCOC(=O)c1cn(Cc2ccc3c(-c4ccc(F)cc4)cc(C(N)=O)nc3c2)nc1C(F)(F)F [Example 3-22, ethyl 1-{[2-carbamoyl-4-(4-fluorophenyl)quin-olin-7-yl]methyl}-3-(trifluoromethyl)-1H-pyrazole-4-carboxylate] | 7.33
NC(=O)c1cc(-c2ccc(F)cc2)c2ccc(Cn3cc(C(O)C4CCCC4)cn3)cc2n1 (stereo not drawn) [Example 3-23, 7-({4-[cyclopentyl(hydroxy)methyl]-1H-pyrazol-1-yl}methyl)-4-(4-fluorophenyl)quin-oline-2-carboxamide] | 6.72
COC(=O)c1cnn(Cc2ccc3c(-c4ccc(F)cc4)cc(C(N)=O)nc3c2)c1 [Example 3-24, methyl 1-{[2-carbamoyl-4-(4-fluorophenyl)quin-olin-7-yl]methyl}-1H-pyrazole-4-carboxylate] | 7.51
NC(=O)c1cc(-c2ccc(F)cc2)c2ccc(Cn3cnc(Br)c3)cc2n1 [Example 3-25, 7-[(4-bromo-1H-imidazol-1-yl)methyl]-4-(4-fluorophenyl)quin-oline-2-carboxamide] | 7.37
COC(=O)c1cncn1Cc1ccc2c(-c3ccc(F)cc3)cc(C(N)=O)nc2c1 [Example 3-26, methyl 1-{[2-carbamoyl-4-(4-fluorophenyl)quin-olin-7-yl]methyl}-1H-imidazole-5-carboxylate] | 7.60
COC(=O)c1cn(Cc2ccc3c(-c4ccc(F)cc4)cc(C(N)=O)nc3c2)cn1 [Example 3-27, methyl 1-{[2-carbamoyl-4-(4-fluorophenyl)quin-olin-7-yl]methyl}-1H-imidazole-4-carboxylate] | 7.64
NC(=O)c1cc(-c2ccc(F)cc2)c2ccc(Cn3cc(C(=O)O)nn3)cc2n1 [Example 3-28, 1-{[2-carbamoyl-4-(4-fluorophenyl)quin-olin-7-yl]methyl}-1H-1,2,3-triazole-4-carboxylic acid] | 7.08
NC(=O)c1cc(-c2ccc(F)cc2)c2ccc(Cn3ccnc3)cc2n1 [Example 3-29, 4-(4-fluorophenyl)-7-(1H-imidazol-1-ylmethyl)quinoline-2-carboxamide] | 7.19
CC(C)c1nccn1Cc1ccc2c(-c3ccc(F)cc3)cc(C(N)=O)nc2c1 [Example 3-30, 4-(4-fluorophenyl)-7-{[2-(1-methylethyl)-1H-imidazol-1-yl]methyl}quinoline-2-carboxamide] | 7.51
Cc1nccn1Cc1ccc2c(-c3ccc(F)cc3)cc(C(N)=O)nc2c1 [Example 3-31, 4-(4-fluorophenyl)-7-[(2-methyl-1H-imidazol-1-yl)methyl]quinoline-2-carboxamide] | 7.27
NC(=O)c1cc(-c2ccc(F)cc2)c2ccc(Cn3ccnc3Cl)cc2n1 [Example 3-32, 7-[(2-chloro-1H-imidazol-1-yl)methyl]-4-(4-fluorophenyl)quin-oline-2-carboxamide] | 7.64
NC(=O)c1cc(-c2ccc(F)cc2)c2ccc(Cn3cnc4cccnc43)cc2n1 [Example 3-33, 4-(4-fluorophenyl)-7-(3H-imidazo[4,5-b]pyridin-3-ylmethyl)quinoline-2-carboxamide] | 7.16
NC(=O)c1cc(-c2ccc(F)cc2)c2ccc(Cn3cnc4ncccc43)cc2n1 [Example 3-34, 4-(4-fluorophenyl)-7-(1H-imidazo[4,5-b]pyridin-1-ylmethyl)quinoline-2-carboxamide] | 7.26

SMILES | pIC50
NC(=O)c1cc(-c2ccc(F)cc2)c2ccc(Cn3c(S(=O)(=O)O)nc4ccccc43)cc2n1 [Example 3-35, 1-{[2-carbamoyl-4-(4-fluorophenyl)quin-olin-7-yl]methyl}-1H-benzimidazole-2-sulfonic acid] | 7.57
NC(=O)c1cc(-c2ccc(F)cc2)c2ccc(Cn3c(-c4ccccn4)nc4ccccc43)cc2n1 [Example 3-36, 4-(4-fluorophenyl)-7-[(2-pyridin-2-yl-1H-benzimidazol-1-yl)methyl]quinoline-2-carboxamide] | 6.72
NC(=O)c1cc(-c2ccc(F)cc2)c2ccc(Cn3c(-c4cccnc4)nc4ccccc43)cc2n1 [Example 3-37, 4-(4-fluorophenyl)-7-[(2-pyridin-3-yl-1H-benzimidazol-1-yl)methyl]quinoline-2-carboxamide] | 7.38
NC(=O)c1cc(-c2ccc(F)cc2)c2ccc(Cn3c(CC(F)(F)F)nc4ccccc43)cc2n1 [Example 3-38, 4-(4-fluorophenyl)-7-{[2-(2,2,2-trifluoroethyl)-1H-benzimidazol-1-yl]methyl}quinoline-2-carboxamide] | 7.62
NC(=O)c1cc(-c2ccc(F)cc2)c2ccc(Cn3c(C4CC4)nc4ccccc43)cc2n1 [Example 3-39, 7-[(2-cyclopropyl-1H-benzimidazol-1-yl)methyl]-4-(4-fluorophenyl)quin-oline-2-carboxamide] | 7.14
NC(=O)c1cc(-c2ccc(F)cc2)c2ccc(Cn3c(C4CCC4)nc4ccccc43)cc2n1 [Example 3-40, 7-[(2-cyclobutyl-1H-benzimidazol-1-yl)methyl]-4-(4-fluorophenyl)quin-oline-2-carboxamide] | 7.09
NC(=O)c1cc(-c2ccc(F)cc2)c2ccc(Cn3c(C4CCCC4)nc4ccccc43)cc2n1 [Example 3-41, 7-[(2-cyclopentyl-1H-benzimidazol-1-yl)methyl]-4-(4-fluorophenyl)quin-oline-2-carboxamide] | 7.05
Cc1nc2ccccc2n1Cc1ccc2c(-c3ccc(F)cc3)cc(C(N)=O)nc2c1 [Example 3-42, 4-(4-fluorophenyl)-7-[(2-methyl-1H-benzimidazol-1-yl)methyl]quinoline-2-carboxamide] | 7.34
CC(C)c1nc2ccccc2n1Cc1ccc2c(-c3ccc(F)cc3)cc(C(N)=O)nc2c1 [Example 3-43, 4-(4-fluorophenyl)-7-{[2-(1-methylethyl)-1H-benzimidazol-1-yl]methyl}quinoline-2-carboxamide] | 7.18
CCC(O)(c1cn(Cc2ccc3c(-c4ccc(OC)c(OC)c4)cc(C(N)=O)nc3c2)cn1)C(F)(F)F (stereo not drawn) [Example 3-46, 4-(3,4-dimethoxyphenyl)-7-({4-[1-hydroxy-1-(trifluoromethyl)propyl]-1H-imidazol-1-yl}methyl)quinoline-2-carboxamide] | 6.69
CCC(O)(c1cn(Cc2ccc3c(-c4ccc(OC)c(C)c4)cc(C(N)=O)nc3c2)cn1)C(F)(F)F (stereo not drawn) [Example 3-47, 7-({4-[1-hydroxy-1-(trifluoromethyl)propyl]-1H-imidazol-1-yl}methyl)-4-(4-methoxy-3-methylphenyl) quinoline-2-carboxamide] | 7.17
CCC(O)(c1cn(Cc2ccc3c(-c4ccc(OC)cc4F)cc(C(N)=O)nc3c2)cn1)C(F)(F)F (stereo not drawn) [Example 3-48, 4-(2-fluoro-4-methoxyphenyl)-7-({4-[1-hydroxy-1-(trifluoromethyl)propyl]-1H-imidazol-1-yl}methyl)quinoline-2-carboxamide] | 7.80
CCC(O)(c1cn(Cc2ccc3c(-c4ccc(OC)c(F)c4)cc(C(N)=O)nc3c2)cn1)C(F)(F)F (stereo not drawn) [Example 3-49, 4-(3-fluoro-4-methoxyphenyl)-7-({4-[1-hydroxy-1-(trifluoromethyl)propyl]-1H-imidazol-1-yl}methyl)quinoline-2-carboxamide] | 7.80
CCC(O)(c1cn(Cc2ccc3c(-c4ccc(OC)cc4F)cc(C(N)=O)nc3c2)cn1)C(F)(F)F (stereo not drawn) [Example 3-50, 4-(2-fluoro-4-methoxyphenyl)-7-({4-[1-hydroxy-1-(trifluoromethyl)propyl]-1H-imidazol-1-yl}methyl)quinoline-2-carboxamide] | 7.82
CCC(O)(c1cn(Cc2ccc3c(-c4ccc(OC)cc4)cc(C(N)=O)nc3c2)cn1)C(F)(F)F (stereo not drawn) [Example 3-51, 7-({4-[1-hydroxy-1-(trifluoromethyl)propyl]-1H-imidazol-1-yl}methyl)-4-(4-methoxyphenyl) quinoline-2-carboxamide] | 8.00
Cn1cc(-c2cc(C(N)=O)nc3cc(CN4CCSC(C5CC5)C4)ccc23)cn1 (stereo not drawn) [Example 4-16, 7-((2-cyclopropylthiomorpholino)methyl)-4-(1-methyl-1H-pyrazol-4-yl)quinoline-2-carboxamide] | 7.89
COC(=O)[C@@H]1CCCN1Cc1ccc2c(-c3ccc(F)cc3)cc(C(N)=O)nc2c1 [Example 4-23, methyl 1-{[2-carbamoyl-4-(4-fluorophenyl)quino-lin-7-yl]methyl}-L-prolinate] | 6.86
NC(=O)c1cc(-c2ccc(F)cc2)c2ccc(CN3CCC[C@H]3C(N)=O)cc2n1 [Example 4-24, 7-{[(2S)-2-carbamoylpyrrolidin-1-yl]methyl}-4-(4-fluorophenyl)quino-line-2-carboxamide] | 7.11
